# Yeast mating assay 1: variants of the scFv Ab-14

Binding partner: SARS-CoV-2 spike HR2 peptide, sequence PDVDLGDISGINAS.

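The parent was found by panning a naive human phage display library on the peptide. Variants in AAYL49 differ from the parent at up to three CDR positions; double and triple changes were sampled at random. In AlphaSeq, yeast of one mating type display the scFv and yeast of the other type display the target. Pairs that bind mate more often; barcode pairs of the diploids are counted by sequencing. Read counts were normalised to the haploid input and turned into Kd by a linear fit to BCL2-family pairs of known affinity, for each replicate. There are three technical replicates.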

Parent scFv Ab-14: VH joined to VL by a 15-residue (Gly4Ser)3 linker. Changes lie in the heavy chain CDRs alone.
VH: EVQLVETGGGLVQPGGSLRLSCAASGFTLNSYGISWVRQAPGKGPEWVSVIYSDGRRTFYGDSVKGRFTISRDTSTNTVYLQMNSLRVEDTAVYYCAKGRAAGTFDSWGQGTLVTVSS
VL: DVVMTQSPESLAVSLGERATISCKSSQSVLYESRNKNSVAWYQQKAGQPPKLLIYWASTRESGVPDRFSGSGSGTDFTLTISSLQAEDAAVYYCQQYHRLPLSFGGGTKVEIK

Each variant is given by its three heavy chain CDRs, as the data file delimits them; those of the parent are GFTLNSYGIS, VIYSDGRRTFYGDSVK, GRAAGTFDS.
All variants listed here change S63 of the VH, counted from its first residue.
Numbers give log10(Kd / nM), so 0 is 1 nM and 3 is 1 µM. Smaller is tighter.
Replicates are averaged; those with no signal do not enter the mean.
A pair that was not seen in that replicate is written "nd"; this usually means weak binding, but a binder can also be missed.
Parent in this assay: reference entry 0.65, copy in this library 4.11 (one replicate of three).
Three control strains display no target. For library AAYL49, 15% of the pairings with them gave a signal, with a median of 4.06 and one signal in twenty below 2.83, so weak values seen in few replicates may be background.

Variant GFTLNSYGIS / VIYSDGRRTTYGDQVK / GRAAKTFDS showed 1.92, nd, 1.77 (mean 1.85). With GFYLNSYGIS / VIYSDGRRTYYGDHVK / GRAAGTFDS the result was nd, 3.34, 3.19 (mean 3.27). For GFTLNSYGIS / VIYSDGRNTFHGDFVK / GRAAGTFDS, the assay gave 4.38, 3.61, nd (mean 4.00). Variant GFTLNSYGIS / VIYSDSRHTFYGDWVK / GRAAGTFDS showed nd, nd, nd. Variant GTTLNSYGIS / VIYSDGRRTFYGDTVK / DRAAGTFDS gave nd, 4.13, nd. With GFTLNSYDIS / VSYSDGRRTFYGDGVK / GRAAGTFDS the result was 6.10, 4.59, nd (mean 5.35). Variant GHTLNSYTIS / VIYSDGRRTFYGDGVK / GRAAGTFDS gave 6.16, 4.08, 4.07 (mean 4.77). Variant GFVLNSYGIS / VIYSDGRHTFYGDKVK / GRAAGTFDS showed 5.05, 3.84, 3.72 (mean 4.20). Variant GFTLFSYGIS / VIYSDGRKTFYGDKVK / GRAAGTFDS showed 3.01, 3.06, 2.79 (mean 2.95).

Variant GFTLNSYGIS / VIYSDGRRTFAGDLVK / GRAANTFDS gave 5.34, 4.36, 4.15 (mean 4.62). Variant GFTLNSYGIS / VIYSYGRRTFQGDHVK / GRAAGTFDS showed nd, nd, nd. Variant GFTLNSYGIS / VIYSDGRRTFYGDLVK / GRWAGTMDS showed nd, nd, nd. Variant GFTLNSDGIS / VIYSDGRRTFYGDQPK / GRAAGTFDS gave nd, nd, nd. With FFTLNSYGIS / VIYSDGRRTFYGDAVK / GRAAGTFES the result was 6.17, nd, nd. Variant GFTLNSYGIS / VIYSDGRRTFYCDRVK / GRAAGKFDS showed 1.97, 1.86, 2.16 (mean 2.00). Variant GFTLNSYGIS / VIYSDGRRTFYGDQVK / GRAAQTFDS gave nd, nd, nd. With GFTLRSYGIS / VIYSDGRRTFYGDNVK / GRAAGTFTS the result was 2.28, 1.40, 1.84 (mean 1.84). For GFTLNSYGIS / VIGSDGRRTFYGDLVK / LRAAGTFDS, the assay gave nd, 4.58, nd.

With MFTLNSYGIS / VIYEDGRRTFYGDNVK / GRAAGTFDS the result was nd, nd, nd. For GFTLNSDGIS / VIYSDGRRTFYGDWVD / GRAAGTFDS, the assay gave nd, 3.38, 3.62 (mean 3.50). For GFLLNSYGIS / VIYSDGGRTFYGDMVK / GRAAGTFDS, the assay gave nd, nd, nd. Variant GFTLNSYGIS / VIYSDGRRTFYGDCVK / GRAAGTQDS gave 0.91, 2.08, 1.79 (mean 1.59). Variant KFTLNSYGIS / VIYSDGRRTFYGDMVK / GRAAGTVDS gave 4.38, 4.25, 3.81 (mean 4.15). With GFTLNSYGIS / VIYSDGRDTFYGDWVK / GRAAGTFDS the result was nd, nd, nd. With GFTLNSYGIS / VIYSDGRRTFYGTCVK / GRAAGTFDS the result was 3.18, 2.91, 3.72 (mean 3.27). Variant GFTLTSYGIS / VQYSDGRRTFYGDCVK / GRAAGTFDS showed nd, nd, nd. Variant GFDLNSYGIS / VIYSDGRRTFYGDMVK / GRAAGTFVS gave 0.70, 0.92, 0.85 (mean 0.82).

Variant GFPLNSYGDS / VIYSDGRRTFYGDYVK / GRAAGTFDS gave 5.43, nd, nd. Variant GFTLNSYGIS / VRYSDGRRTFYGDVVG / GRAAGTFDS gave nd, nd, nd. With GFTLNSYGIS / VIESDGRRTFYGDKVK / GRAVGTFDS the result was nd, 3.73, nd. With GFTLNSYISS / VIYSDGRRTFYGDFVK / GRAAGTFDS the result was 4.67, nd, nd.

5 of these entries, quoted again:

{"CDR-H1": "GFTLNSYGIS", "CDR-H2": "VIYSDGRRTFYGDQVK", "CDR-H3": "GRAAQTFDS", "log10 Kd, replicates": "nd, nd, nd", "log10 Kd (nM), mean": "nd"}
{"CDR-H1": "GFTLTSYGIS", "CDR-H2": "VQYSDGRRTFYGDCVK", "CDR-H3": "GRAAGTFDS", "log10 Kd, replicates": "nd, nd, nd", "log10 Kd (nM), mean": "nd"}
{"CDR-H1": "GFTLNSYGIS", "CDR-H2": "VIGSDGRRTFYGDLVK", "CDR-H3": "LRAAGTFDS", "log10 Kd, replicates": "nd, 4.58, nd", "log10 Kd (nM), mean": "4.58"}
{"CDR-H1": "GFTLNSYISS", "CDR-H2": "VIYSDGRRTFYGDFVK", "CDR-H3": "GRAAGTFDS", "log10 Kd, replicates": "4.67, nd, nd", "log10 Kd (nM), mean": "4.67"}
{"CDR-H1": "GFTLNSYGIS", "CDR-H2": "VIYSYGRRTFQGDHVK", "CDR-H3": "GRAAGTFDS", "log10 Kd, replicates": "nd, nd, nd", "log10 Kd (nM), mean": "nd"}

Source: Engelhart et al. 2022 (doi:10.1038/s41597-022-01779-4), MIT Lincoln Laboratory and A-Alpha Bio; data file from the FLAb repository.